Results taken from patent publication US20190328665A1, “LIPOSOME COMPOSITIONS ENCAPSULATING MODIFIED CYCLODEXTRIN COMPLEXES AND USES THEREOF” (priority 2014, published 2019).

Format: in vivo
Conditions: oral gavage 200 mg/kg

O=C(NOC[C@H](O)CO)c1ccc(F)c(F)c1Nc1ccc(I)cc1F [PD-0325901]
acute toxicity / survival: always died within 24 hours
